Yeast mating assay 1: variants of the scFv Ab-14

Reference: Engelhart et al. 2022, doi:10.1038/s41597-022-01779-4. File: FLAb, binding data.

Binding partner: SARS-CoV-2 spike HR2 peptide, sequence PDVDLGDISGINAS.

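Phage display of a naive human antibody library on the peptide gave the parent. Library AAYL50 holds single substitutions and randomly drawn double and triple substitutions in the CDRs. The scFvs were displayed on barcoded MATa yeast, the peptide on MATalpha yeast. Binding brings cells together so that they mate, and sequencing counts the barcode pairs among the diploids. A regression on co-assayed BCL2-family reference pairs converts the normalised counts of each replicate to an apparent Kd. Mating was done three times.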

The variants keep the heavy chain, the linker and the frameworks of Ab-14 (scFv order VH, a 15-residue (Gly4Ser)3 linker, VL).
VH: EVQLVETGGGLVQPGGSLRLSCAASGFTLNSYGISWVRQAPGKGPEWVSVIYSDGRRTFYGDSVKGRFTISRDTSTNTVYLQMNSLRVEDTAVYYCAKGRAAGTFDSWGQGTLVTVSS
VL: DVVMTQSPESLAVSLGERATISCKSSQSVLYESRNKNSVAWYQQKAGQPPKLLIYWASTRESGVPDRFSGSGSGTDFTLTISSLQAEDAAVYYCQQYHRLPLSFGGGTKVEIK

Substitutions are numbered in sequence along the VL above, starting at 1 (not Kabat).
Kd is apparent (estimated from mating counts) and averaged on the log scale over replicates with a signal. Smaller is tighter.
Where no diploid with the target was found in any replicate, the entry reads "no signal": below detection, most likely a poor binder, though not proof of it.
Empty control strains, which show no peptide, gave a signal in 18% of pairings with library AAYL50; the median was 15 µM and 95% of these signals were weaker than 970 nM. No background was subtracted.
For reference, the parent read 4.4 nM as the reference entry and 48 nM as a member of this library.

| changes | Kd | detected |
|---|---|---|
| L30D+S58W+Y97F | 4.9 µM | 1/3 |
| S38W+S58L+S103K | no signal | 0/3 |
| V39C+W56D+R60F | 3.9 µM | 2/3 |
| K24P+L30K+R60Q | no signal | 0/3 |
| S62K+H98M+R99W | 76 nM | 3/3 |
| S26D+V29K+P101W | no signal | 0/3 |
| N37M+H98C+P101Y | 1.5 µM | 3/3 |
| S28I+E61A+Y97S | 260 nM | 3/3 |
| S28P+L100T | 36 µM | 2/3 |
| Y31H+L100I+L102M | 23 nM | 3/3 |
| N37D+S62K+S103L | 31 nM | 3/3 |
| S26D+Q95D+R99Y | 3.2 nM | 3/3 |
| E32C+Q95I+S103K | 60 µM | 1/3 |
| S25C+V29S+Q95M | 32 µM | 1/3 |
| S25P+T59I+H98S | 2.7 nM | 3/3 |
| S26M+Q27Y+Q96M | no signal | 0/3 |
| N37P+Y97Q+L100C | 47 µM | 2/3 |
| R34L+Q95L+P101R | 33 nM | 3/3 |
| K24W+N37M+L100Y | 17 µM | 3/3 |
| L30K+E32D+N37H | 1.1 µM | 3/3 |
| S28C+L30F+E61R | 1.1 µM | 3/3 |
| L30C+W56M+L100Y | 65 nM | 3/3 |
| A40W+A57K+R60N | 830 nM | 1/3 |
| A57K+R60K+L102C | no signal | 0/3 |
| Q27N+S38H+Q96G | 90 nM | 3/3 |
| S38N+V39C+S58P | no signal | 0/3 |
| S33L+H98F | 4.8 µM | 2/3 |
| V39W+R60W+H98G | 7.3 µM | 1/3 |
| A57W+R60Y | 8.3 µM | 1/3 |
| L30N+S33E+N37G | 4.7 nM | 3/3 |
| K36T+S38W+Q96I | 12 µM | 1/3 |
| V39I+L100Y | no signal | 0/3 |
| W56H+R60H+P101F | 60 µM | 1/3 |
| K24M+A40D+S62T | no signal | 0/3 |
| N37F+S38M+Q95P | no signal | 0/3 |
| K24Y+A57G+Q95R | no signal | 0/3 |
| S25M+Q27H | 250 nM | 3/3 |
| S26I+Y31K+N37W | 170 nM | 3/3 |
| S38G+E61C+S62F | no signal | 0/3 |
| S38F+V39Y+W56I | no signal | 0/3 |
| W56K+Y97E | 3.2 µM | 1/3 |
| S33W+N35S+W56T | 42 nM | 3/3 |
| N37T+S38Q+S58C | 19 µM | 1/3 |
| S25N+T59P+L100F | 29 µM | 2/3 |
| L30S+N35G+L100F | 8.1 nM | 3/3 |
| Q27C+R60M+L100A | no signal | 0/3 |
| W56T+A57W+T59N | no signal | 0/3 |
| E32G+Y97F+R99W | 14 µM | 1/3 |
| Y31N+S33D+L102Y | 6.3 nM | 3/3 |
| S28W+S38K+E61V | 18 µM | 2/3 |
| S26N+E61R+L100P | no signal | 0/3 |
| S38N+A57H+L100F | 54 µM | 1/3 |
| S33N+Q95C+Q96K | 72 µM | 2/3 |
| K24D+A57Y+P101M | 4.9 µM | 1/3 |
| S26L+T59A+S103L | no signal | 0/3 |
| Y31K+K36F+S38D | 9.0 nM | 3/3 |
| Q27C+Y31T+E61A | 53 nM | 3/3 |
| S33H+S38H+S62R | 9.6 µM | 3/3 |
| K24S+R34F+T59M | 12 nM | 3/3 |
| N35D+K36L+A40P | 1.7 mM | 1/3 |
| L30M+N35D+Q96F | 23 nM | 3/3 |
| K36N+H98D+L100P | 530 nM | 1/3 |
| V29I+R99M+S103E | no signal | 0/3 |
| S25R+Q27V+R99M | 190 nM | 2/3 |
| N37M+V39Y+A57T | 1.4 µM | 1/3 |
| Y31G+V39W+L100W | no signal | 0/3 |
| S26D+R34A+N35Y | 12 nM | 3/3 |
| S25Y+Q27E | 680 pM | 3/3 |
| R60A+Y97K+L100Q | 54 µM | 1/3 |
| S25N+Q95Y+P101N | 4.5 µM | 1/3 |
| Q96W+Y97E+L102H | 11 µM | 1/3 |
| K24V+A57C | 20 µM | 2/3 |

The last 9 entries again:

changes,Kd,detected
S25R+Q27V+R99M,190 nM,2/3
N37M+V39Y+A57T,1.4 µM,1/3
Y31G+V39W+L100W,no signal,0/3
S26D+R34A+N35Y,12 nM,3/3
S25Y+Q27E,680 pM,3/3
R60A+Y97K+L100Q,54 µM,1/3
S25N+Q95Y+P101N,4.5 µM,1/3
Q96W+Y97E+L102H,11 µM,1/3
K24V+A57C,20 µM,2/3